Literature values, collected in patent publication US20080063637A1, “Regulation of oncogenesis by Akt-specific isoforms” (The Trustees of Tufts College, priority 2006, published 2008).

By UniProt entry, the sequences of proteins in these tests, tags left out.
UniProt P31749, whole entry: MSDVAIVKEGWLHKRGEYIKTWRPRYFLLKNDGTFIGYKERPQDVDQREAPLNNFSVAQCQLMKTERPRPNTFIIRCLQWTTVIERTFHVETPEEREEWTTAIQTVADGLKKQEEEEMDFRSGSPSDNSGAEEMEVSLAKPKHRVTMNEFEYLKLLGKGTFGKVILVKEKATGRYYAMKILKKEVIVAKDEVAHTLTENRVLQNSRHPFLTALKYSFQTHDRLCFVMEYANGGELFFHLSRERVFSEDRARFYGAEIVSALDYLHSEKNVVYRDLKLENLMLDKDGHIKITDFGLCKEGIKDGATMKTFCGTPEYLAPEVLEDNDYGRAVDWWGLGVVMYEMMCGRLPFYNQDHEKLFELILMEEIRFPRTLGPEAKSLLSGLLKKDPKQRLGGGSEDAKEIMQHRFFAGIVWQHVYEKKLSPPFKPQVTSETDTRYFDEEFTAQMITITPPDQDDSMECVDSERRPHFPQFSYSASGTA

Assays:
[1] = test system: LNCap prostate cancer cells; conditions: Barnett et al. 2005
[2] = test system: corresponding Akt isoforms (phosphorylation by PDK1); conditions: Barnett et al. 2005
Akt1 = Akt1 (Homo sapiens, UniProt P31749); conditions: read-out: IC50 Akt1 kinase inhibition; HTRF assay; Barnett et al. 2005

CN(C)CC(C)(C)CNc1nn2c(-c3ccccc3)nnc2cc1C1CCC1
TRAIL-induced apoptosis [1]: promote | phosphorylation and activation of the corresponding Akt isoforms by PDK1 [2]: blocked | IC50 (Akt1): 4.6 µM
